pIC50: −log10 of the molar value. Read-outs that look alike come from different tables or passages of the source.
Tests used:
[1] = target: EGFR D19TMCS (del19/T790M/C797S) (Homo sapiens, UniProt P00533, C797S/DEL746-750/T790M); experiment: Biochemical EGFR kinase inhibition (Lance Ultra TR-FRET), del19/T790M/C797S; conditions: read-out: EGFR D19TMCS IC50
[2] = target: EGFR LRTMCS (L858R/T790M/C797S) (Homo sapiens, UniProt P00533, C797S/L858R/T790M); experiment: Biochemical EGFR kinase inhibition (Lance Ultra TR-FRET), L858R/T790M/C797S; conditions: read-out: EGFR LRTMCS IC50
EGFR D19CS (del19/C797S) = EGFR D19CS (del19/C797S) (Homo sapiens, UniProt P00533, C797S/DEL746-750); experiment: Biochemical EGFR kinase inhibition (Lance Ultra TR-FRET), del19/C797S; conditions: read-out: EGFR D19CS IC50
EGFR LRCS (L858R/C797S) = EGFR LRCS (L858R/C797S) (Homo sapiens, UniProt P00533, C797S/L858R); experiment: Biochemical EGFR kinase inhibition (Lance Ultra TR-FRET), L858R/C797S; conditions: read-out: EGFR LRCS IC50
EGFR WT = EGFR WT (Homo sapiens, UniProt P00533); experiment: Biochemical EGFR kinase inhibition (Lance Ultra TR-FRET), wildtype; conditions: read-out: EGFR WT IC50; ATP at Km

Sequences of proteins named here, by UniProt entry; tags and fusion partners are left off. A change or cut given only in a name is not applied to a line headed by its entry. A line that says so, or that is headed by a name, gives the form on record, which may keep a tag or linker. Residues count along the entry.
UniProt P00533, 25-1210 C797S/L858R limits assumed: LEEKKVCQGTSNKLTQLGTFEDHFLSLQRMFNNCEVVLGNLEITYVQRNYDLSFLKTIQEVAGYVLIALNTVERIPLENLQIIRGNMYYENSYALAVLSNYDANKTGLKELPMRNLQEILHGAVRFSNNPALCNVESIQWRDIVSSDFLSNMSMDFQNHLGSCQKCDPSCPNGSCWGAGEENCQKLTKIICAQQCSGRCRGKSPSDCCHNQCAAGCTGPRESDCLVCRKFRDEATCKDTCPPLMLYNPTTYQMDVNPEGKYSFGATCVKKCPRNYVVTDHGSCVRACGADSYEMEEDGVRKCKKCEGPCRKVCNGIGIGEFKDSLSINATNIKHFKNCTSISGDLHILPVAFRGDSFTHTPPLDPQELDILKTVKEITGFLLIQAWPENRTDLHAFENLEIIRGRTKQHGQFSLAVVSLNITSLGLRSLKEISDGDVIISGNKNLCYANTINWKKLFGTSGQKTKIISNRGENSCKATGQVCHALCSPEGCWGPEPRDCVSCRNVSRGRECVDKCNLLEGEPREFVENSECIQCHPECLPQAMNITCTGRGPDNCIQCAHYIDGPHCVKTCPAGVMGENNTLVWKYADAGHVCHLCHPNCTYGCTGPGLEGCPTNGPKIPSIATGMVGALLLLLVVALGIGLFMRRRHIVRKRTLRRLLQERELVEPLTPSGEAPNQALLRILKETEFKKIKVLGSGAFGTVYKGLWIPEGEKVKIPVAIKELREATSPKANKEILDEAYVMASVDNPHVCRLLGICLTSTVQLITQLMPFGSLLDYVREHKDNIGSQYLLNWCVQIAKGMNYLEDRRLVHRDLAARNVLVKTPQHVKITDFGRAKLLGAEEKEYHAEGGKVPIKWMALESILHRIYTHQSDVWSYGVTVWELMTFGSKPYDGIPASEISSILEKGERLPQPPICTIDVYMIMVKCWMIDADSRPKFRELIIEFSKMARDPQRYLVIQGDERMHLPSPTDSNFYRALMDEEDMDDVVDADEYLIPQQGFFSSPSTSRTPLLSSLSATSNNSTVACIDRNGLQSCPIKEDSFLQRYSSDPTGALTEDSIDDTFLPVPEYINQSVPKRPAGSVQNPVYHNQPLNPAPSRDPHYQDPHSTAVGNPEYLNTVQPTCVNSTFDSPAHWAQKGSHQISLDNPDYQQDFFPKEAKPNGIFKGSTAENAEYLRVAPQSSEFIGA
UniProt P00533, 25-1210 T790M/C797S/L858R limits assumed: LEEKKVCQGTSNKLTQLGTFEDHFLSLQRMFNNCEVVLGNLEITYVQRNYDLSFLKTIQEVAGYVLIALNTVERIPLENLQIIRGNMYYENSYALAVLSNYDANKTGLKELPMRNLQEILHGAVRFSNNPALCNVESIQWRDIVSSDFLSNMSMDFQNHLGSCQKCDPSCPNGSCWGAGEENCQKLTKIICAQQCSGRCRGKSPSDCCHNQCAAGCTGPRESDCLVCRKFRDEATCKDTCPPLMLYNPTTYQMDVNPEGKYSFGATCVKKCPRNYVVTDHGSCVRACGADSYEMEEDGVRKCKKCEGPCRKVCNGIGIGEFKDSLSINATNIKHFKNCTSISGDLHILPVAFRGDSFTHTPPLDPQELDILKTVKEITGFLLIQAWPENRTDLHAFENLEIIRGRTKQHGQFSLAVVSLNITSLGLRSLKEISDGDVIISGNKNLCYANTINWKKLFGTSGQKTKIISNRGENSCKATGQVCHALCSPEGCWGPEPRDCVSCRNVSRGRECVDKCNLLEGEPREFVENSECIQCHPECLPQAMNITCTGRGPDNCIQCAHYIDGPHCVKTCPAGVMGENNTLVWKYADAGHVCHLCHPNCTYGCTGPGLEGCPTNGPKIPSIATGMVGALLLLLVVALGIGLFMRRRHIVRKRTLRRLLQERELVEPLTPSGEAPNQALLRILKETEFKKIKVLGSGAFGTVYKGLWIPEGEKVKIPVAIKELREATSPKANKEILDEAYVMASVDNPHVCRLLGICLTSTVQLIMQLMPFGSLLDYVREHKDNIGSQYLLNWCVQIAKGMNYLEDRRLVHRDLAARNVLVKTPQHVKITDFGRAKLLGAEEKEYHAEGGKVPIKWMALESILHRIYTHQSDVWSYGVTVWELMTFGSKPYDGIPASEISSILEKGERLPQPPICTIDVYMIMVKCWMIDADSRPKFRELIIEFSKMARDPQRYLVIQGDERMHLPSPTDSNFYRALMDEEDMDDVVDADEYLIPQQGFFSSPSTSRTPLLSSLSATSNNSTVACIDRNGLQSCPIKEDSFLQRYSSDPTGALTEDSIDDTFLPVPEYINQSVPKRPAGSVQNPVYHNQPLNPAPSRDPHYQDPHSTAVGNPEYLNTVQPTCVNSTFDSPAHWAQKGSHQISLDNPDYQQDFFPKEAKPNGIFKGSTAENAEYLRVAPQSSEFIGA
UniProt P00533, with tags, fused parts or gaps DEL746-750/C797S limits assumed: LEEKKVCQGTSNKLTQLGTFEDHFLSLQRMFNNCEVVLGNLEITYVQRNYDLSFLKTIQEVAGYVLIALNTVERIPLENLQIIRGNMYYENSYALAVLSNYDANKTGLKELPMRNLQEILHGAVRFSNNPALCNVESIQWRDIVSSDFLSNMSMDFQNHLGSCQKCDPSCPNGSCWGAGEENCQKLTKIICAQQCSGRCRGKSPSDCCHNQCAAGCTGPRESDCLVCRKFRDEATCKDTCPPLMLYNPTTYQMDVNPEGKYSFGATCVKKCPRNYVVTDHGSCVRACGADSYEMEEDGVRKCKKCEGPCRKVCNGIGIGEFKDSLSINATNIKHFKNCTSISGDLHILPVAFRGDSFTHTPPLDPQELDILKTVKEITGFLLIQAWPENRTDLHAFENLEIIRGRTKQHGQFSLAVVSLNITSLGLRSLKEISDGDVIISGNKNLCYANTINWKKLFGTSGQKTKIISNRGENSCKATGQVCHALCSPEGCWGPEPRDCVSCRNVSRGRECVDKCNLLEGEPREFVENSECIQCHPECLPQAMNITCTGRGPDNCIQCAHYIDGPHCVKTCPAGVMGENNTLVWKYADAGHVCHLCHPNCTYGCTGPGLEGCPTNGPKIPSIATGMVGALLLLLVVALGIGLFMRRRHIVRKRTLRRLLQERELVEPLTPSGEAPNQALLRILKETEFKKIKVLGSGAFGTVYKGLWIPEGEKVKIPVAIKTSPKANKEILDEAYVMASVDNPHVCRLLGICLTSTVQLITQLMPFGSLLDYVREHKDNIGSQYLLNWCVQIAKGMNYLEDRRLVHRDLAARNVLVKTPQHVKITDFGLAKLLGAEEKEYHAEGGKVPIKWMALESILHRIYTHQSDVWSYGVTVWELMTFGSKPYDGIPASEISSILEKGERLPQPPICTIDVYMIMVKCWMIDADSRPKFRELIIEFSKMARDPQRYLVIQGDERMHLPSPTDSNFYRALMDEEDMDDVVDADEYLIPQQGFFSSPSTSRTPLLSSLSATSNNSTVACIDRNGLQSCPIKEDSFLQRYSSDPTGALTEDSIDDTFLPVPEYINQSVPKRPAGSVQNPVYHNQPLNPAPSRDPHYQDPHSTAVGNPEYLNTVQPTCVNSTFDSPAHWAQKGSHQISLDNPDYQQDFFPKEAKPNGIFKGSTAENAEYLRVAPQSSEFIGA
UniProt P00533, with tags, fused parts or gaps DEL746-750/T790M/C797S limits assumed: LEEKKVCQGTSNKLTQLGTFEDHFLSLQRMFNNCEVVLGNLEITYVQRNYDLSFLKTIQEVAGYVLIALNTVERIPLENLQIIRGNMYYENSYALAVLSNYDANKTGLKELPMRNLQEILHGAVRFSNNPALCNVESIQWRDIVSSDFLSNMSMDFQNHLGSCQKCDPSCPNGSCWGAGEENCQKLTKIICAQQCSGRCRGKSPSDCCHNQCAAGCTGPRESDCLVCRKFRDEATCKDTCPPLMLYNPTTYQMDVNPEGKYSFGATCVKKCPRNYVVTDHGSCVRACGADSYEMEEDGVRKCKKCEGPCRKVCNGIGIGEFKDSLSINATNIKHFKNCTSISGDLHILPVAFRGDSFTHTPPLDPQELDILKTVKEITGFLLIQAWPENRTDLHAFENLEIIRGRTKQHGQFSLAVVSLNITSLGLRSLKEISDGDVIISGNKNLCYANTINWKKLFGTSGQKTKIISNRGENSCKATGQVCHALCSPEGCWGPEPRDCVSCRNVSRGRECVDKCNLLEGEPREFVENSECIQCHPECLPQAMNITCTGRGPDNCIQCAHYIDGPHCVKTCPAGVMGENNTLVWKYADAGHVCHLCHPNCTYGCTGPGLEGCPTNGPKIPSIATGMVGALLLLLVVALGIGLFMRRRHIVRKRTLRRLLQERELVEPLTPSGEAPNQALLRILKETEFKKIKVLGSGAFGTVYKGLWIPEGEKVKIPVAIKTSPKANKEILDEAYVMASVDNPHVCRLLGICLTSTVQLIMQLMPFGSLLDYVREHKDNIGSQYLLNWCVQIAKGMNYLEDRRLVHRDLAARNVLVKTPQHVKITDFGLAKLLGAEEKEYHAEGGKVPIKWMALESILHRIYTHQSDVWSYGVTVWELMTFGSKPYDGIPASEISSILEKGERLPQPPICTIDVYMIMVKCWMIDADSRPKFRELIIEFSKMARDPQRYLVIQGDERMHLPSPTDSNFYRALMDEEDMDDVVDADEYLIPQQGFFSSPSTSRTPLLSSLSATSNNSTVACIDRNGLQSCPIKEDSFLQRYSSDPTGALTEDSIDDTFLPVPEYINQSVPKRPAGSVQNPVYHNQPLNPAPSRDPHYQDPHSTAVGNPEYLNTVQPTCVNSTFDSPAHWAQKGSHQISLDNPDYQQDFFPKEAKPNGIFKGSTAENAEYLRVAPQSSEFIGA
UniProt P00533, 25-1210 limits assumed: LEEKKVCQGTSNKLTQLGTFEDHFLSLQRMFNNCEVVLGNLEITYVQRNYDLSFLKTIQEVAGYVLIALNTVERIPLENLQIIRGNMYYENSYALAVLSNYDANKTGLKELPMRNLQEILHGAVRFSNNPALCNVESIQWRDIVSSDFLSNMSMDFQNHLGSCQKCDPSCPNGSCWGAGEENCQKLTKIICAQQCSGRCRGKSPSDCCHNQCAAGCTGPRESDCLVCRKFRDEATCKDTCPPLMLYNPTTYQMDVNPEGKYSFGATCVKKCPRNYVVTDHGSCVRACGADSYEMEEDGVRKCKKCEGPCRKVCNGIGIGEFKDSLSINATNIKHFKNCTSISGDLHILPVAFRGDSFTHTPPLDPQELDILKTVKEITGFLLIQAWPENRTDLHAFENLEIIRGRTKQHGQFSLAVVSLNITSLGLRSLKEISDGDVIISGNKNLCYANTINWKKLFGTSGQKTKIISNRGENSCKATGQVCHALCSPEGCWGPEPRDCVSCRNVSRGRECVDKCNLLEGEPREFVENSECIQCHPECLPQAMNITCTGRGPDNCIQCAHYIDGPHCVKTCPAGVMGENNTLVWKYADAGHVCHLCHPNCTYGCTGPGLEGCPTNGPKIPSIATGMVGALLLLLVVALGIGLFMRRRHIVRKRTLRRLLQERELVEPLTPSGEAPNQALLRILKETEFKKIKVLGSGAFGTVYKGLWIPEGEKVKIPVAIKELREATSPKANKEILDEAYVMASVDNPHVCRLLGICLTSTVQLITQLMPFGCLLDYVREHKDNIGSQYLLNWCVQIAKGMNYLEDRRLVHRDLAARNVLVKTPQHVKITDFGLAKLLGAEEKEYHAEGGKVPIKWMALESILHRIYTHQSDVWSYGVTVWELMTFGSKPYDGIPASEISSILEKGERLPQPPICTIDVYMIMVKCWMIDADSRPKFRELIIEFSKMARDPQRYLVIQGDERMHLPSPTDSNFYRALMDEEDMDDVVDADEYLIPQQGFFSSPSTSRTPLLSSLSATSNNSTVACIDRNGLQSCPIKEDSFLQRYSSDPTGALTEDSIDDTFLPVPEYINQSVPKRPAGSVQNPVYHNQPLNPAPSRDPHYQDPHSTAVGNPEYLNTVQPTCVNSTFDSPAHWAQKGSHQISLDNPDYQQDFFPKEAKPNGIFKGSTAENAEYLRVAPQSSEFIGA

| pIC50 ([1]; 1 mM ATP) | pIC50 ([1]; ATP at Km) | pIC50 ([2]; 1 mM ATP) | pIC50 ([2]; ATP at Km) | pIC50 (EGFR D19CS (del19/C797S); 1 mM ATP) | pIC50 (EGFR D19CS (del19/C797S); ATP at Km) | pIC50 (EGFR LRCS (L858R/C797S); 1 mM ATP) | pIC50 (EGFR LRCS (L858R/C797S); ATP at Km) | pIC50 (EGFR WT) | Compound |
| --- | --- | --- | --- | --- | --- | --- | --- | --- | --- |
| > 8.00 | > 8.00 | > 8.00 | > 8.00 | > 8.00 | > 8.00 | 6.00 to 7.00 | > 8.00 | > 8.00 | C[C@H]1CCOc2c(cnn2C)-c2nccc(n2)Nc2cc(c(C#Cc3cnn(C)c3C3CC3)cn2)N1 |
| 7.00 to 8.00 | > 8.00 | 6.00 to 7.00 | 7.00 to 8.00 | < 6.00 | < 6.00 | < 6.00 | < 6.00 | < 6.00 | Cn1cc(C#Cc2cnc3cc2NC[C@@H](F)COc2c(cnn2C)-c2nccc(n2)N3)cn1 |
| 7.00 to 8.00 | > 8.00 | 6.00 to 7.00 | > 8.00 | 7.00 to 8.00 | 7.00 to 8.00 | 6.00 to 7.00 | > 8.00 | 7.00 to 8.00 | Cc1nn(C(F)(F)F)c(C)c1C#Cc1cnc2cc1NCC[C@H](C)Oc1c(c(C)nn1C)-c1nccc(n1)N2 |
| > 8.00 | > 8.00 | > 8.00 | > 8.00 | > 8.00 | > 8.00 | 7.00 to 8.00 | > 8.00 | > 8.00 | Cc1nn(C)c2c1-c1nccc(n1)Nc1cc(c(C#Cc3cnn(C)c3C3CC3)cn1)NCC[C@H](C)O2 |
| > 8.00 | > 8.00 | > 8.00 | > 8.00 | 7.00 to 8.00 | 7.00 to 8.00 | < 6.00 | 7.00 to 8.00 | 7.00 to 8.00 | C[C@H]1CCOc2c(cnn2C)-c2nccc(n2)Nc2cc(c(C#Cc3cn(C)nc3C(F)(F)F)cn2)N1 |
| > 8.00 | > 8.00 | > 8.00 | > 8.00 | 7.00 to 8.00 | > 8.00 | 7.00 to 8.00 | > 8.00 | 7.00 to 8.00 | C[C@H]1CCNc2cc(ncc2C#Cc2cnn(CC(F)F)c2)Nc2ccnc(n2)-c2cnn(C)c2O1 |
| > 8.00 | > 8.00 | > 8.00 | > 8.00 | 7.00 to 8.00 | 7.00 to 8.00 | < 6.00 | 7.00 to 8.00 | 7.00 to 8.00 | Cc1nn(C)c2c1-c1nccc(n1)Nc1cc(c(C#Cc3cnn(C(F)(F)F)c3)cn1)N[C@@H](C)CCO2 |
| 7.00 to 8.00 | > 8.00 | 7.00 to 8.00 | > 8.00 | < 6.00 | 6.00 to 7.00 | < 6.00 | 7.00 to 8.00 | 6.00 to 7.00 | Cn1ncc2c1OC[C@@H](F)CNc1cc(ncc1C#Cc1cnn(CC(F)(F)F)c1)Nc1ccnc-2n1 |
| > 8.00 | > 8.00 | > 8.00 | > 8.00 | > 8.00 | > 8.00 | 7.00 to 8.00 | > 8.00 | > 8.00 | Cc1nn(C)c2c1-c1nccc(n1)Nc1cc(c(C#Cc3ccc(S(C)(=O)=O)cc3)cn1)NCC[C@H](C)O2 |
| 7.00 to 8.00 | > 8.00 | 6.00 to 7.00 | 7.00 to 8.00 | < 6.00 | 6.00 to 7.00 | < 6.00 | < 6.00 | < 6.00 | C[C@@H]1CCOc2c(cnn2C)-c2nccc(n2)Nc2cc(c(C#Cc3cnn(CC(F)(F)F)c3)cn2)N1 |
| 7.00 to 8.00 | > 8.00 | > 8.00 | > 8.00 | < 6.00 | 6.00 to 7.00 | < 6.00 | 6.00 to 7.00 | 6.00 to 7.00 | C[C@H]1CCOc2c(cnn2CC(F)(F)F)-c2nccc(n2)Nc2cc(c(C#Cc3cnn(C(F)F)c3)cn2)N1 |
| > 8.00 | > 8.00 | > 8.00 | > 8.00 | 7.00 to 8.00 | 7.00 to 8.00 | 6.00 to 7.00 | 7.00 to 8.00 | 7.00 to 8.00 | Cc1cnc(C#Cc2cnc3cc2N[C@@H](C)CCOc2c(cnn2C)-c2nccc(n2)N3)cn1 |
| > 8.00 | > 8.00 | > 8.00 | > 8.00 | 6.00 to 7.00 | 7.00 to 8.00 | 6.00 to 7.00 | > 8.00 | 7.00 to 8.00 | C[C@H]1CCOc2c(cnn2C)-c2nccc(n2)Nc2cc(c(C#Cc3cnn(C(F)(F)F)c3)cn2)N1 |
| 7.00 to 8.00 | > 8.00 | 7.00 to 8.00 | > 8.00 | < 6.00 | 6.00 to 7.00 | < 6.00 | 7.00 to 8.00 | 6.00 to 7.00 | C[C@@H]1CCOc2c(cnn2C)-c2nccc(n2)Nc2cc(c(C#Cc3cnn(C)c3)cn2)N1 |
| > 8.00 | > 8.00 | > 8.00 | > 8.00 | > 8.00 | > 8.00 | 7.00 to 8.00 | > 8.00 | > 8.00 | Cc1nn(C)c2c1-c1nccc(n1)Nc1cc(c(C#Cc3cnn(CCF)c3)cn1)N[C@@H](C)CCO2 |
| > 8.00 | > 8.00 | < 6.00 | 7.00 to 8.00 | < 6.00 | < 6.00 | < 6.00 | < 6.00 | < 6.00 | C[C@@H]1CCOc2c(cnn2C)-c2nccc(n2)Nc2cc(c(C#Cc3cnn(C(F)(F)F)c3)cn2)N1 |
| > 8.00 | > 8.00 | 7.00 to 8.00 | > 8.00 | 7.00 to 8.00 | > 8.00 | 6.00 to 7.00 | > 8.00 | 7.00 to 8.00 | Cc1nn(C)c2c1-c1nccc(n1)Nc1cc(c(C#Cc3cccnc3)cn1)N[C@@H](C)CCO2 |
| > 8.00 | > 8.00 | > 8.00 | > 8.00 | 7.00 to 8.00 | > 8.00 | 7.00 to 8.00 | > 8.00 | 7.00 to 8.00 | COc1nn(C)cc1C#Cc1cnc2cc1N[C@@H](C)CCOc1c(c(C)nn1C)-c1nccc(n1)N2 |
| > 8.00 | > 8.00 | > 8.00 | > 8.00 | > 8.00 | > 8.00 | 7.00 to 8.00 | > 8.00 | > 8.00 | C[C@H]1CCNc2cc(ncc2C#Cc2cccnc2)Nc2ccnc(n2)-c2cnn(C)c2O1 |
| 7.00 to 8.00 | > 8.00 | 6.00 to 7.00 | > 8.00 | < 6.00 | 6.00 to 7.00 | < 6.00 | 6.00 to 7.00 | 6.00 to 7.00 | C[C@@H]1CCOc2c(cnn2C)-c2nccc(n2)Nc2cc(c(C#Cc3cnn(C(F)F)c3)cn2)N1 |
| > 8.00 | > 8.00 | > 8.00 | > 8.00 | 7.00 to 8.00 | > 8.00 | 6.00 to 7.00 | > 8.00 | 7.00 to 8.00 | Cn1cc(C#Cc2cnc3cc2NCC(C)(C)COc2c(cnn2C)-c2nccc(n2)N3)cn1 |
| > 8.00 | > 8.00 | 7.00 to 8.00 | > 8.00 | 6.00 to 7.00 | 7.00 to 8.00 | < 6.00 | 7.00 to 8.00 | 6.00 to 7.00 | Cc1nn(C)c2c1-c1nccc(n1)Nc1cc(c(C#Cc3ccc(N4CCOCC4)cc3)cn1)N[C@@H](C)CCO2 |
| 7.00 to 8.00 | 7.00 to 8.00 | 6.00 to 7.00 | > 8.00 | < 6.00 | < 6.00 | < 6.00 | 6.00 to 7.00 | < 6.00 | Cn1ncc2c1OCCC(C)(C)Nc1cc(ncc1C#Cc1cnn(CC(F)(F)F)c1)Nc1ccnc-2n1 |
